Data as given in patent US4835155A, “Process for protection of brain cells” (Nippon Chemiphar Co., Ltd., priority 1986, dated 1989).
Counter-ions that a name gives are not always drawn.

Test system: pyramidal cells (neurons) in CA1 area of hippocampus
Test: Restraint effect on delayed nerve cell affection (5 min bilateral carotid occlusion, forebrain ischemia; surviving CA1 pyramidal cells after seven days)
Assay type: in vivo, meriones unguiculatus
Conditions: 30 mg/kg intraperitoneally at recovery of blood flow, n = 10, normal group 66.03 ± 7.37, vehicle 7.51 ± 3.26
Procedure: A male meriones unguiculatus (approx. 12-16 week ages) was anesthetized. Its bilateral common carotide arteries at the neck was exposed, and occluded with clips for 5 minutes to cause ischemia at its forebrains. At the same time when the blood flow was recovered, 1-(3,4-dimethoxyphenyl)-2-(4-diphenylmethylpiperazinyl)ethanol dihydrochloride (hereinafter referred to as "Medicament A") or 0.2% methylcellulose (which was employed as vehicle for the above test compound) was administered intraperitoneally at a dose of 30 mg/kg (n=10) for each.
After seven days, the treated animal was fixed by perfusion fixation which was carried out by introducing approx. 300 ml of 10% aqueous formalin solution into left ventricle at 120 cm·H2 0, and were decapitated. After decapitated portion was left at room temperature for one hour, the brain was taken out and immersed into the same solution for 48 hours. After the brains were dissected out and cut coronally into small blocks, the blocks were dehydrated and then embedded in paraffin according to the conventional manner. […]
The specimen was observed by means of an optical microscope to measure number of well-shaped pyramidal cells (i.e., neurons) contained in CA1 area of the specimen, and was photographed to measure the length of the pyramidal cell layer in the area. Then, number of pyramidal cells per 1 mm was calculated and studied.

Question: Which “Number of CA1 neurons” value does the source give for `COc1ccc(C(O)CN2CCN(C(c3ccccc3)c3ccccc3)CC2)cc1OC` (stereo not shown) [Medicament A, 1-(3,4-dimethoxyphenyl)-2-(4-diphenylmethylpiperazinyl)ethanol dihydrochloride] here?
Answer: 47.16 ± 4.31 /mm
